Data from patent US20260183363A1, “INHIBITION OF LUTEINIZING HORMONE (LH) ACTION AS TREATMENT OF PERIMENOPAUSAL AND POSTMENOPAUSAL SYMPTOMS AND COMPLICATIONS” (RIGSHOSPITALET, priority 2022, published 2026).
Where “and” joins values, the source holds several entries; their conditions need not be identical. Identical values can stand only once. Like-named read-outs stand apart in the source and are kept apart here.

How the values were obtained:
Type in all cases: in vivo, human
[1] = system: men with various testicular diseases; assay: hCG stimulation test in 356 men with testicular diseases; settings: for PTH: 72 hours
Experimental: 356 men with various testicular diseases who were all evaluated in our andrological outpatient clinic and referred for hCG stimulation test, were followed longitudinally with blood sampling at baseline and after 72 hours, as per standard protocol. […] The 356 men comprised of 110 patients with previous testicular cancer, 28 other types of previous cancer, 57 with gynecomastia, 44 infertile men, 54 men with hypogonadism and the remaining with various testicular/pituitary conditions. […] Serum FSH and LH levels were measured with Delfia, CV<5% for both. Serum and urine total calcium (CV 2.5%) and serum PTH (CV<4%) were all measured using Cobas 8000 while serum ionized calcium (CV 3%) was measured on ABL 837. Longitudinal assessment of blood- and urine samples (delta values) were calculated as fold change, relative to baseline for each person, with all samples' initial value starting at one. All analyses were analyzed with ANOVA with control/baseline as reference value and every p-value presented was adjusted for multiple comparisons with Dunnett's post hoc test.

[2] = system: men with previous testicular cancer and hemi-orchiectomy and/or testicular radiation; assay: Injection of 5000 IU hCG in 10 hemi-orchiectomized men
Experimental: (§1) 11 healthy men and 10 men with previous testicular cancer and hemi-orchiectomy and/or testicular radiation were invited to participate in a prospective clinical trial, receiving 5000 IU hCG (Pregnyl) intramuscularly. They were followed longitudinally with blood- and urine sampling at baseline and 2, 8, 24, 72 and 120 hours after injection. All samples were drawn while fasting except after 8 hours. Sampling and subsequent injection at baseline and sampling at 24, 72, and 120 hours were done between 8.00 am and 9.30 am. Electro-cardiogram (ECG) was monitored at baseline and after 8 and 24 hours and QTc interval was calculated using Bazett's formula. Age, BMI and reproductive hormones on the 11 healthy men have previously been published in a baseline table. The inventors also investigated one person with an inactivating mutation in their Calcium Sensing Receptor […] heterozygote, resulting in Familial Hypocalciuric Hypercalcemia (FHH) who was evaluated in our andrological clinic fasting blood- and urine samples which were collected at baseline, 2, 24 and 72 hours after injection of 5000 IU hCG. […] Serum FSH and LH levels were also measured with Delfia, CV<5% for both. […] CTX1 (CV 8%) and P1NP (CV 8%) were both measured on IDSi10. Serum and urinal total calcium (CV 2.5%), creatinine (CV 5%), and phosphate (CV 6%), and serum calcitonin (CV 7%) and serum PTH (CV<4%) were all measured using Cobas 8000 while serum ionized calcium (CV 3%) was measured on ABL 837. Longitudinal assessment of blood- and urine samples (delta values) were calculated as fold change relative to baseline for each person with all samples' initial value starting at one. All analyses were analyzed with ANOVA with control/baseline as reference value. Every p-value presented was adjusted for multiple comparisons with Dunnett's post hoc test. However, evaluation of changes in QTc interval on ECGs was available only at two time points and therefore statistically analyzed using paired T-test. 10 hemi-orchiectomized men were injected with 5000 IU hCG.

healthy men = system: healthy men
Experimental: as §1, with “T-test.” for “T-test. 10 hemi-orchiectomized men were injected with 5000 IU hCG.”

[3] = individual men with elevated LH
[4] = individual men with normal or low LH

hCG: human chorionic gonadotropin (Pregnyl), LHCGR agonist with longer serum half-life than LH
serum ionized calcium levels (mean) ([1]; 72 hours after injection, other value 1.208, no change): 1.209 mmol/L
serum PTH (mean) ([1]; 72 hours after injection, other value 5.39, no change): 5.42 pmol/L
PTH ([1]; men with baseline PTH above normal range (>6.9 pmol/L)): significant, persistent drop
calcium ([1]; men with deficient increase in testosterone (3-6 nmol/L)): modest decrease in calcium
calcium ([1]; men with insufficient increase in testosterone (<3 nmol/L)): corresponding drop in calcium
PTH ([1]; men with normal baseline PTH (≤6.9 pmol/L)): significant, persistent increase
serum calcium ([1]; men with sufficient increase in testosterone (6-12 or >12 nmol/L)): increase in serum calcium
serum ionized calcium and total calcium ([2]; 4 hypogonadotropic men): non-significant trend towards increasing
PTH ([2]; 4 hypogonadotropic men, throughout the study period (8-120 hours)): significant persistent suppression
calciotropic effect ([2]; 6 men with compensatory elevated LH): mimicked that of the healthy men
Δ at 8 hours Ionized Calcium [2, 3]: ↑ and ↓ (5×)
Δ at 8 hours PTH [2, 3]: ↑
Δ at 8 hours Ionized Calcium [2, 4]: ↑
Δ at 8 hours PTH [2, 4]: ↓
increase in CCCR (healthy men; 8 hours after injection): 2.5 fold
increase in U-Calcium/U-creatinine ratio (healthy men; 8 hours after injection): 2.4 fold
serum 1,25-dihydroxy vitamin D increase (healthy men; 72 hours after injection): 69%
serum 1,25-dihydroxy vitamin D increase (healthy men; 120 hours after injection): 89%
Total calcium (healthy men; after 24 hours): significantly lower
albumin levels (healthy men; after 24 hours): significant reduction
estradiol peak increase (healthy men; after 24 hours, relative to baseline): 3.5 fold
testosterone peak increase (healthy men; after 72 hours, relative to baseline): 2.2 fold
serum PTH (healthy men; after hCG injection): immediate increase
CCCR elevated (healthy men; after two hours): 36%
U-Calcium/U-creatinine ratio elevated (healthy men; after two hours): 46%
serum concentration of ionized- and total calcium (healthy men; early after injection, not statistically significant): concomitant drop
Serum calcitonin, early phase (healthy men; early hypercalciuric phase): elevated during the early hypercalciuric phase
increase in serum CTX1 (healthy men; fasting serum): 24%
Serum calcitonin, late phase (healthy men; from 24 hours and onwards): lower than baseline
QTc interval (healthy men; in vivo): 407 ms
QTc interval versus baseline (healthy men; in vivo): no significant difference
serum 25-OHD (healthy men; in vivo): unchanged
serum- or urinary phosphate or phosphate excretion (healthy men; in vivo): no significant change
LH and FSH (healthy men; serum, after hCG injection): decrease
urinary excretion (calcium) higher than baseline levels (healthy men; throughout the study period): 50%
